Protein sequences, listed by entry. Tags and fused reporters are not part of them. Residues count along the entry.
UniProt P22303, 32-614 limits assumed: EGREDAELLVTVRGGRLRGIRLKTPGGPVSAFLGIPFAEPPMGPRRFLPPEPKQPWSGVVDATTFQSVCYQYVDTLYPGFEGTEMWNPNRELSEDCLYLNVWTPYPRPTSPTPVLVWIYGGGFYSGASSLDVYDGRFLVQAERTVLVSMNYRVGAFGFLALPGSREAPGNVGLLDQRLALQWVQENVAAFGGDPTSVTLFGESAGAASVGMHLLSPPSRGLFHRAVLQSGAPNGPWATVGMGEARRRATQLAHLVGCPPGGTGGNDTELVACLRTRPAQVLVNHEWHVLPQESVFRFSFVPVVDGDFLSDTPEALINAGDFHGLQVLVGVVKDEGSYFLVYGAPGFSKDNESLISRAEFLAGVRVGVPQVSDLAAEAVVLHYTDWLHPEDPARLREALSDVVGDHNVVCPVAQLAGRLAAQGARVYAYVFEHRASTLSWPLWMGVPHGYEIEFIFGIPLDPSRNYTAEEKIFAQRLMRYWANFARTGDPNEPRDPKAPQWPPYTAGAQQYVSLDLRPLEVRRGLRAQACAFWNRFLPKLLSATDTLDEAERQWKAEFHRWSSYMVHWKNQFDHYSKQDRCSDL
UniProt P06276, 29-602 limits assumed: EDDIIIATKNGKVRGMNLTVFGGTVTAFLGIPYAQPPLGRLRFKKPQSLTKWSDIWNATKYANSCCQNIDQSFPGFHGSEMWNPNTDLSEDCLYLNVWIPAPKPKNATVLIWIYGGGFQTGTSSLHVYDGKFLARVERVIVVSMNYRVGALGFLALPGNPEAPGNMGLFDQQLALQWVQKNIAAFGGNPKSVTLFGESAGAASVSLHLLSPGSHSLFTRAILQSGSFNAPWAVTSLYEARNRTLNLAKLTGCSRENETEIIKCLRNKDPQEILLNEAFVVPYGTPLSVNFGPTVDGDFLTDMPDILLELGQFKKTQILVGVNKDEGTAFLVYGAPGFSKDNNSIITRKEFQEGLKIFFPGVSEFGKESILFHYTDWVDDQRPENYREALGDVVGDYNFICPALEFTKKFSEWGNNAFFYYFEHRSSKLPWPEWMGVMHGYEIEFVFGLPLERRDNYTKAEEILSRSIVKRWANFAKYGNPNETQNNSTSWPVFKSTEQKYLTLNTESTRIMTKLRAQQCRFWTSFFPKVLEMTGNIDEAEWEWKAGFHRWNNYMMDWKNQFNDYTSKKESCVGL
UniProt P23795, 31-614 isoform 2 limits assumed: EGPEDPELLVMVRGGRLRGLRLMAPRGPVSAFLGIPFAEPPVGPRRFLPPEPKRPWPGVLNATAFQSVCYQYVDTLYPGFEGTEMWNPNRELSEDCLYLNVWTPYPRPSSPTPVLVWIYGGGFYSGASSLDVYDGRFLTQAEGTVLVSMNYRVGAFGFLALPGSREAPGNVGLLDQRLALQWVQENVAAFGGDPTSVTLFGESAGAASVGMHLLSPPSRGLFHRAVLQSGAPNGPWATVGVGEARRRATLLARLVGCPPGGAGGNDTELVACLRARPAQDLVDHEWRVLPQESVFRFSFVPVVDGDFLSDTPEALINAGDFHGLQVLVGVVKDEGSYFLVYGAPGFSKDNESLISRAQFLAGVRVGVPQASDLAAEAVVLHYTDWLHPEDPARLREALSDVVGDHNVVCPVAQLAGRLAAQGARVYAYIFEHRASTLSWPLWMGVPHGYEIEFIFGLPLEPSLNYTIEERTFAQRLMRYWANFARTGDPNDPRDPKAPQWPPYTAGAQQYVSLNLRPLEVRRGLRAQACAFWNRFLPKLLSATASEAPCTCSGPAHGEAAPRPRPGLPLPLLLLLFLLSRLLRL

According to patent US20060142323A1, “Dual binding site acetylcholinesterase inhibitors for the treatment of alzheimer's disease” (priority 2002, published 2006):

Columns and labels:
[1] = target: AChE peripheral site (Homo sapiens, UniProt P22303); assay: Propidium competition (fluorescence); format: binding; settings: 20 μM propidium iodide, AChE incubated at least 6 hours with compound
[2] = target: BuChE from human serum (Homo sapiens, UniProt P06276); assay: Butyrylcholinesterase (BuChE) inhibition (from human serum); format: biochemical; settings: read-out: IC50 BuChE, 30° C., 10 min preincubation
[3] = tested on: human neuroblastoma cell line SH—SY5Y; assay: Toxicity measurement (LDH) in SH-SY5Y cells; format: cell-based; settings: 24 hours exposure
Method: The cytotoxicity effect of the molecules was tested in the human neuroblastoma cell line SH—SY5Y. These cells were cultured in 96-well plates in minimum essential medium, Han's F12 medium, supplemented with 10% fetal bovine serum, 1% glutamine and 1% penicillin/streptomycin, and grown in. a 5% CO2 humidified incubator at 37° C.
The cells were plated at 10^4 cells for each well, at least, 48 hours before the toxicity measure. Cells were exposed for 24 hours to the compounds at different concentrations (from 10^−5 to 10^−9), quantitative assessment of cell death was made by measurement of the intracellular enzyme lactate dehydrogenase (LDH) (citotoxicity detection kit, Roche). The cuantity of LDH was evaluated in a microplate reader Anthos 2010, at 492 and 620 nm. Controls were taken as 100% viability.

[4] = target: AChE from bovine erythrocytes (Bos taurus, UniProt P23795); assay: Acetylcholinesterase (AChE) inhibition (from bovine erythrocytes), Ellman method at 30° C., Digiscan 340T; format: biochemical; settings: read-out: IC50 AchE, 5 min preincubation

c1ccc2c(NCCCCCCCCCNc3c4ccccc4nc4ccccc34)c3c(nc2c1)CCCC3
Propidium competition [1]: 100 µM | IC50 [2]: 10 nM | Toxicity [3]: 10 µM | IC50 [4]: 20 nM
